# Earlier results in PMC10819888, “Benzimidazole-Based Derivatives as Apoptotic Antiproliferative Agents: Design, Synthesis, Docking, and Mechanistic Studies” (Molecules, 2024).
# Amino acid sequences for entries named in this document (tags omitted). Residues count along the entry.
# UniProt P00533, 669-1210: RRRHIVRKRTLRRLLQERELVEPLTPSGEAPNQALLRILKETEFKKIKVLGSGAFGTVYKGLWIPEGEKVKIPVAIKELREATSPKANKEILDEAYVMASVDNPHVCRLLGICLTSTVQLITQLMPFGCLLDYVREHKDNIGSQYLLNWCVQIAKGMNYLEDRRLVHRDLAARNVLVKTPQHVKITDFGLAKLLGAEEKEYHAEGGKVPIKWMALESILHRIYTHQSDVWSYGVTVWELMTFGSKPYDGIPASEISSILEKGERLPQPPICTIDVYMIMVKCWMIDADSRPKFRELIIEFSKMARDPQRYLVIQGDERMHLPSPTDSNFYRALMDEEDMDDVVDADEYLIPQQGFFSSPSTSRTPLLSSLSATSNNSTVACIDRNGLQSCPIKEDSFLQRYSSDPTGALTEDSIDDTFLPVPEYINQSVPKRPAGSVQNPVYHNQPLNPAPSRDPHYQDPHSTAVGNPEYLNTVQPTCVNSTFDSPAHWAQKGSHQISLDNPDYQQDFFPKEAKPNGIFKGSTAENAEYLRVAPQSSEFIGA
# Target: EGFR (Homo sapiens, UniProt P00533)
# Set-up: CD, amino acids 645–1186); His6 (N); made in house; host or cells: Sf-9 insect cells (baculovirus; pBlueBacHis2B / pFASTBacHTc; method as in PMID 31954624, PMID 29285266, PMID 27433829, doi:10.1200/JCO.2018.36.15_suppl.9094, PMID 26825170
# Conditions: Figure 1; read-out: IC50 EGFR inhibitor; cited from earlier work
compound,measurement,value
Cc1cc(C(=O)Nc2nc3cccc(Cl)c3n2[C@@H]2CCCCN(C(=O)/C=C/CN(C)C)C2)ccn1 [Nazartinib],IC50,31 nM
